Laboratory results published in PubChem BioAssay AID588674 (Broad Institute, 2011).
Only a part is listed here, and it is no random draw. The source made the active and inactive calls.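 Rule for the calls: active = mean inhibition of at least 75% with every replicate also reaching 75%; inconclusive = mean inhibition at least 75% but some replicate below; inactive = mean inhibition below 75%.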

assay: Shn3 3'UTR reporter decrease in osteoblasts – cell-based, Clone20 osteoblasts, firefly luciferase, set 2, Schnurri-3 inhibitor project, primary screen (AID 588674); settings: Clone20 osteoblast Shn3 3'UTR firefly luciferase, 24 h; at 12.5 µM; hits give high values;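 note: 0% = median of neutral control wells and 100% = pilot-screen positive control compound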

| Compound | inhibition |
| --- | --- |
| O=C(NCC1(N2CCOCC2)CCCCC1)c1cc2ccccc2o1 | inactive: -12.1% |
| N#CC1(Nc2ccccc2)CCN(Cc2ccccc2)CC1 | inactive: 11.7% |
| O=C(NCC1(N2CCCCC2)CCCCC1)c1ccc(Cl)s1 | inactive: -3% |
| O=c1[nH]c2ccccc2n1C1CCN(C(c2cc3ccccc3o2)c2nnnn2C2CCCCC2)CC1 (centres undefined) | inactive: -22.2% |
| O=C(OC1CN2CCC1CC2)C1c2ccccc2Oc2ccccc21 (centres undefined) | inactive: 12.6% |
| COc1ccc(Cl)cc1C(=O)NCC1(N2CCOCC2)CCCCC1 | inactive: -7.29% |
| CCOC(=O)N1CCC(Nc2ccc(OC)cc2)CC1 | inactive: 4.28% |
| CCCCn1nnnc1C(c1ccc(OC)cc1)N1CCC(n2c(=O)[nH]c3ccccc32)CC1 (centres undefined) | inactive: -1.48% |
| CCOc1ncccc1C(=O)NCC1(N2CCOCC2)CCCCC1 | inactive: 25.9% |
| CN1CCC(Nc2ccc(F)c(Cl)c2)CC1 | inactive: 10.2% |
| CC(C)(C)OC(=O)N1CCC(Nc2ccccc2)CC1 | inactive: -21.2% |
| O=C(O)C1(Nc2ccccc2)CCN(Cc2ccccc2)CC1 | inactive: 6.22% |
| O=c1[nH]c2ccccc2n1C1CCN(C(c2cc3ccccc3o2)c2nnnn2C2CCCC2)CC1 (centres undefined) | inactive: -2.29% |
| CCCOc1ccc(C(=O)NCC2(N(C)C)CCCCC2)cc1 | inactive: -8.9% |
| COc1cccc(C(=O)N(c2cc(C)cc(C)c2)C2CCN(C(=O)OC(C)(C)C)CC2)c1 | inactive: 50.5% |
| COc1cccc(C(c2nnnn2C2CCCC2)N2CCC(n3c(=O)[nH]c4ccccc43)CC2)c1OC (centres undefined) | inactive: -15.2% |
| COc1cc(OC)cc(C(=O)NCC2(N3CCOCC3)CCCCC2)c1 | inactive: -21.7% |
| CCC(CO)(C(=O)OC1CN2CCC1CC2)c1ccccc1 (centres undefined) | inactive: -5.83% |
| CN1CCC(Nc2ccc(Cl)cc2)CC1 | inactive: 3.97% |
| COc1cccc(C(c2nnnn2C2CCCCC2)N2CCC(n3c(=O)[nH]c4ccccc43)CC2)c1OC (centres undefined) | inactive: 5.68% |
| CC(=O)N(c1ccccc1)C1CCNCC1 | inactive: -26.6% |
| CCC(c1nnnn1C1CCCCC1)N1CCC(n2c(=O)[nH]c3ccccc32)CC1 (centres undefined) | inactive: 29.5% |
| COc1cc(OC)cc(C(=O)NCC2(N3CCCCC3)CCCCC2)c1 | inactive: -14.8% |
| O=c1[nH]c2ccccc2n1C1CCN(C(c2ccnc3ccccc23)c2nnnn2C2CCCCC2)CC1 (centres undefined) | inactive: 4.5% |
| Cc1ccc(C(=O)NCC2(N3CCCCC3)CCCCC2)o1 | inactive: -0.118% |
| Fc1ccccc1NC1CCN(Cc2ccccc2)CC1 | inactive: -14.1% |
| Cc1ccc(NC2(C#N)CCN(Cc3ccccc3)CC2)cc1 | inactive: 3.92% |

| Compound | inhibition |
| --- | --- |
| Cc1ccccc1NC1(C#N)CCN(Cc2ccccc2)CC1 | inactive: 6.52% |
| CCN1CCC(Nc2cccc(F)c2)CC1 | inactive: -10.6% |
| COc1ccc(C(c2nnnn2C2CCCCC2)N2CCC(n3c(=O)[nH]c4ccccc43)CC2)cc1 (centres undefined) | inactive: 6.75% |
| CC(C)(C)n1nnnc1C(c1ccnc2ccccc12)N1CCC(n2c(=O)[nH]c3ccccc32)CC1 (centres undefined) | inactive: 9.34% |
| O=C(NCC1(N2CCCCC2)CCCCC1)c1ccco1 | inactive: 14.5% |
| CN(C)c1ccc(C(=O)NCC2(N3CCCCC3)CCCCC2)cc1 | inactive: -2.25% |
| Cn1c(=O)[nH]cc(N(CCCl)CCCl)c1=O | inactive: 4.36% |
| N#Cc1ccc(C(=O)NCC2(N3CCCCC3)CCCCC2)cc1 | inactive: 3.12% |
| CC(C)(C)OC(=O)N1CCC(N(C(=O)c2ccccc2)c2ccc(Cl)cc2)CC1 | inactive: -2.08% |
| CN(C)C1(CNC(=O)c2cccc(C#N)c2)CCCCC1 | inactive: -6.35% |
| c1ccc(CN2CCC(Nc3ccccc3)CC2)cc1 | inactive: 6.11% |
| Cc1cc(N(CCCl)CCCl)ccc1C=O | inactive: 2.26% |
| CCCN1CCC(Nc2cc(OC)cc(OC)c2)CC1 | inactive: 2.38% |
| O=c1[nH]c2ccccc2n1C1CCN(C(c2ccccc2)c2nnnn2C2CCCC2)CC1 (centres undefined) | inactive: 3.48% |
| CC(C)(C)n1nnnc1C(c1cccc2ccccc12)N1CCC(n2c(=O)[nH]c3ccccc32)CC1 (centres undefined) | inactive: 9.67% |
| CCCCn1nnnc1C(c1ccccc1)N1CCC(n2c(=O)[nH]c3ccccc32)CC1 (centres undefined) | inactive: 1.59% |
| COc1cc(C(=O)NCC2(N3CCOCC3)CCCCC2)cc(OC)c1C | inactive: 16.3% |
| O=C(NCC1(N2CCOCC2)CCCCC1)c1cc(Br)ccc1Cl | inactive: -0.955% |
| O=c1[nH]c2ccccc2n1C1CCN(C(c2cccs2)c2nnnn2C2CCCCC2)CC1 (centres undefined) | inactive: 15.6% |
| COc1ccc(C(=O)NCC2(N3CCOCC3)CCCCC2)cc1OC | inactive: -19% |
| O=c1[nH]c2ccccc2n1C1CCN(C(c2ccnc3ccccc23)c2nnnn2C2CCCC2)CC1 (centres undefined) | inactive: -26.5% |
| CCOC(=O)N1CCC(Nc2ccc(C)cc2)CC1 | inactive: 24.6% |
| COc1cccc(C(c2nnnn2C(C)(C)C)N2CCC(n3c(=O)[nH]c4ccccc43)CC2)c1OC (centres undefined) | inactive: -27.7% |
| N/C(=N\O)c1c(N)no[n+]1[O-] | inactive: -16% |
| O=C(OC1CN2CCC1CC2)C1c2ccccc2C=Cc2ccccc21 (centres undefined) | inactive: 2.62% |
| O=c1[nH]c2ccccc2n1C1CCN(C(c2cccs2)c2nnnn2C2CCCC2)CC1 (centres undefined) | inactive: 12.2% |
| CCCCn1nnnc1C(c1cccc(OC)c1OC)N1CCC(n2c(=O)[nH]c3ccccc32)CC1 (centres undefined) | inactive: 23.4% |
